For the experiment, the target named is T1, KMO mouse enzyme (Mus musculus, UniProt Q91WN4).
T1 construct: KMO enzyme prepared at Evotec from mouse liver (4-6 weeks old) via mitochondria isolation; from tissue; host or cells: mouse liver (4-6 weeks old), mitochondria isolation, prepared at Evotec
Kind of experiment: KMO mouse enzyme assay: L-Kynurenine hydroxylation to 3-Hydroxy-Kynurenine monitored by LC/MS (MRM). It counts as biochemical. The following applies: compound at 10 μM, KMO enzyme from mouse liver mitochondria. How it is done: A method of monitoring L-Kynurenine (KYN) hydroxylation to form 3-Hydroxy-Kynurenine (3OH-KYN) by LC/MS is described. Product is quantified by multiple reaction monitoring (MRM method).
• Compound: Stock concentrations: 10 mM in 100% DMSO • Enzyme: KMO enzyme prepared at Evotec from mouse liver (4-6 weeks old) via mitochondria isolation as described in the literature • Substrate: L-Kynurenine (Sigma: Cat# K3750, stock concentration: 10 mM in 100 mM potassium phosphate buffer, pH 7.4) Assay Conditions: […]

The chains behind the UniProt entries cited, without tags or fusion partners. Where a name states a change or a piece, a line headed by the entry shows the natural chain unless it says otherwise.
UniProt Q91WN4: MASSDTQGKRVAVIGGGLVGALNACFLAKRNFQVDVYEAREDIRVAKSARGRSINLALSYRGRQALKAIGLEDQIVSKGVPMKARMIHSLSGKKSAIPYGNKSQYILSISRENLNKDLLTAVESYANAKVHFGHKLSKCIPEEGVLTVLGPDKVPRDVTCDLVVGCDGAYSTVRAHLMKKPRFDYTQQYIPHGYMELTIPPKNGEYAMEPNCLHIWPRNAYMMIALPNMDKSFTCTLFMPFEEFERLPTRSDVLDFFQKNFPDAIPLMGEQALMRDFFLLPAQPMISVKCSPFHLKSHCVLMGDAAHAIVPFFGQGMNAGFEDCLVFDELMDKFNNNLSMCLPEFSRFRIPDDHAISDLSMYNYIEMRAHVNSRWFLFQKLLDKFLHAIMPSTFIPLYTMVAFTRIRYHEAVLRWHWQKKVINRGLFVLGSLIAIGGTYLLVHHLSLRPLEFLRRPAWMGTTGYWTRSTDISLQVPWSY

We go through two compounds from US9145373B2, “Certain kynurenine-3-monooxygenase inhibitors, pharmaceutical compositions, and methods of use thereof” (CHDI FOUNDATION, INC., priority 2008, dated 2015).

Counter-ions that a name gives are not always drawn.

For the compound `O=C(O)c1cc(-c2ccc(Cl)c(Cl)c2)ncn1` [6-(3,4-Dichloro-phenyl)-pyrimidine-4-carboxylic acid], the “INH.Mouse @ 10 μM” value was 105.5.
Turning to `O=C(O)c1cc(-c2ccc(Cl)c(Cl)c2)ncn1` [6-(3,4-dichloro-phenyl)-pyrimidine-4-carboxylic acid sodium salt], the inhibition at 10 µM (read-out: INH.Mouse @ 10 μM) was determined as 100%.
